Data on two sequences can be found in patent US11034726B2, “Gene expression inhibitors” (PIVARIS BIOSCIENCE GMBH, priority 2017, dated 2021).

Ends that are not written are not given here.

Assay [1] deals with plasmid-encoded luciferase in HEK293 cells. Description: Transient transfection of luciferase expression plasmid (CMV promoter) with peptide, luciferase in cell lysates. The conditions noted are these: peptide transfected with CMV-luciferase plasmid, HEK293, 24 hrs.
Assay [2] deals with plasmid-encoded secreted alkaline phosphatase (SEAP) in HEK293 cells. Description: Transient transfection of SEAP expression vector (CMV promoter), SEAP in supernatant by colorimetric assay. The assay is classed as cell-based, human. The conditions noted are these: 24 hrs.
For assay [3], the system named is plasmid-encoded truncated NF-κB p65 (p65 M2) in HEK293 cells. Description: Transfection of p65 M2 expression plasmid, Western blot. The conditions noted are these: 20 μM, 24 hrs. It is filed as cell-based, human.

Turning to CLAFYACFCGGGCLAFYACFC [I24 dimer], in assay [1], the “inhibition of luciferase production (in words)” value is reported as “more potent compared to peptide I24 but less potent compared to TAT-I24”.

As for “CLAFYACFC (cysteine pairing not given here) [I24, linear or cyclized via cysteine residues]”, the “SEAP released to the supernatant (in words)” value in assay [2] is on record as “reduced production of SEAP in a dose-dependent manner”. In assay [3], the “p65 M2 production by Western blot” value was “no p65 M2 could be detected”.
